ChEMBL document CHEMBL1671781, “Discovery and biological characterization of (2R,4S)-1'-acetyl-N-{(1R)-1-[3,5-bis(trifluoromethyl)phenyl]ethyl}-2-(4-fluoro-2-methylphenyl)-N-methyl-4,4'-bipiperidine-1-carboxamide as a new potent and selective neurokinin 1 (NK1) receptor antagonist clinical candidate” (J Med Chem, 2011)

Protein sequences, listed by entry. Tags and fused reporters are not part of them.
UniProt P25103, whole entry: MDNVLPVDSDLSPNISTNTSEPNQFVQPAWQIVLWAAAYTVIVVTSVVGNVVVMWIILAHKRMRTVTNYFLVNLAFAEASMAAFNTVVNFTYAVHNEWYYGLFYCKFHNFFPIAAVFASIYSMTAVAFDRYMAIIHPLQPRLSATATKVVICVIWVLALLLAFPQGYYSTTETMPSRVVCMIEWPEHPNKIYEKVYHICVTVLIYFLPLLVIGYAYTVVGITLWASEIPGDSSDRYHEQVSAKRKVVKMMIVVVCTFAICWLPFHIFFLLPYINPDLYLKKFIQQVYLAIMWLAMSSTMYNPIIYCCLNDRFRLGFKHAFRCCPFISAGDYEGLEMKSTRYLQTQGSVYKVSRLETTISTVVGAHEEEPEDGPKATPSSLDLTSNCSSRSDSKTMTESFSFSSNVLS

Tests used:
Substance-P receptor [1] = molecular target: T1, Substance-P receptor (Homo sapiens, UniProt P25103); assay: Displacement of [3H]GR205171 from human NK1 receptor in cortex homogenate by liquid scintillation counting
Substance-P receptor [2] = molecular target: T1, Substance-P receptor; assay: Displacement of [3H]SP from human NK1 receptor expressed in CHO cells by liquid scintillation counting; format: cell-based

CC(=O)N1CCN([C@H]2CCN(C(=O)N(C)[C@H](C)c3cc(C(F)(F)F)cc(C(F)(F)F)c3)[C@@H](c3ccc(F)cc3C)C2)CC1 [CASOPITANT]
Ki (Substance-P receptor [1]): 0.126 nM
Ki (Substance-P receptor [2]): 0.331 nM
